# The list shows a part of the results, in another mix than the full data. Records with an inconclusive call do not appear. Where a call stands in place of a potency, no number is given. Activity calls are given as the source filed them. The call rests on the fitted dose curve; in most records, active means well fitted inhibition curve with a large enough effect; inconclusive means small, poorly fitted or top-dose-only effect, or another doubt; inactive means no such curve, though single readings can be large or run the other way.
# Target: DNA polymerase beta (Homo sapiens) (UniProt P06746)
# Experiment: qHTS Assay for Inhibitors of DNA Polymerase Beta
# Details: Pol beta primer extension/strand displacement, fluorescence kinetic; series mostly up to 114 µM
# Excerpt: The base excision repair system in human cells is a target for therapeutic modulation of the response to irradiation treatment and DNA-damaging drugs. A key enzyme in this system is the bi-functional DNA polymerase known as DNA polymerase Beta (Pol Beta). The following is a homogeneous kinetic assay to study the primer extension and strand-displacement reaction catalyzed by pol beta.
# A stepwise description of the 1536-well assay is shown in next Table. Three microliters of reagents (buffer in column 3 and 4 as negative control and 10 nM Pol beta in columns 1, 2, and 5-48) was dispensed into 1,536-well black solid-bottomed plate. Compounds (23 nL) were transferred via Kalypsys pin tool equipped with 1536-pin array (10 nL slotted pins, V&P Scientific, San Diego, CA). The plates were incubated for 15 min at room temperature, and 1 uL substrate (50 nM final concentration) were added to start the reaction and immediately read at 0 min read on Viewlux reader. The plate were further incubated for 10 min at room temperature, and then read on Viewlux again. Throughout the screen, reagent bottle and all liquid lines were chilled and made light-tight to minimize reagent degradation. All screening operations were performed on a fully integrated robotic system (Kalypsys, San Diego, CA) containing one RX-130 and two RX-90 anthropomorphic robotic arms (Staubli, Duncan, SC). Library plates were screened starting from the lowest and proceeding to the highest concentration, and a double-dipping step of the highest concentration was required to access higher concentrations of compounds. Vehicle-only plates, with DMSO being pin-transferred to the entire column 5-48 compound area, were inserted uniformly at the beginning and the end of each library in order to monitor for and record any shifts in the background, which can be affected by reagent dispensers or loss in enzyme activity overtime. Screening data were corrected, normalized, and concentration-effect relationships were derived by using publicly-available curve fitting algorithms developed in-house (http://ncgc.nih.gov/pub/openhts). A four parameter Hill equation was fitted to the concentration-response data by minimizing the residual error between the modeled and observed responses.
# Potency means the concentration at half of the fitted maximal effect.
row,SMILES,Potency
1,COc1ccc(OP(C)(=O)Nc2cccc(F)c2)cc1 (configuration not stated),inactive
2,COc1ccccc1OP(C)(=O)Nc1cc(Cl)ccc1C (configuration not stated),inactive
3,Cc1cc(C)cc(OP(C)(N)=O)c1 (configuration not stated),inactive
4,CCOC(=O)c1ccc(NP(C)(=O)Oc2ccccc2)cc1 (configuration not stated),inactive
5,Cc1ccc(NP(C)(=O)Oc2ccccc2)c(C)c1 (configuration not stated),inactive
6,COc1ccccc1OP(C)(=O)Nc1ccc(C)cc1 (configuration not stated),inactive
7,Cc1cccc(C)c1OP(C)(N)=O (configuration not stated),inactive
8,O=[N+]([O-])c1ccc2c(c1)C=Nc1ccccc1O2,inactive
9,CCN(CC)CCCOC(=O)C(O)(c1ccccc1)c1ccccc1,inactive
10,CP(=O)(Nc1ccccn1)Oc1ccc(Cl)cc1 (configuration not stated),inactive
11,CCOP(C)(=S)SCC(=O)NC(C)C(=O)O (configuration not stated),inactive
12,CCOC(=O)c1ccc(NP(C)(=O)Oc2ccc(OC)cc2)cc1 (configuration not stated),inactive
13,Cc1cc(C)cc(OP(C)(=O)Nc2ccc(SC(F)(F)F)cc2)c1 (configuration not stated),inactive
14,CCc1ccc(OP(C)(=O)N2CCN(c3ccc([N+](=O)[O-])cc3)CC2)cc1 (configuration not stated),inactive
15,CP(=O)(NC(=O)Nc1ccccc1)Oc1ccccc1 (configuration not stated),inactive
16,CP(=O)(Oc1ccccc1)OC(c1ccccc1)C(F)(F)F (configuration not stated),inactive
17,CP(=O)(Nc1ccc(SC(F)(F)F)cc1)Oc1ccc(Cl)cc1 (configuration not stated),inactive
18,Cc1cccc(C)c1OP(C)(=O)Nc1ccc(SC(F)(F)F)cc1 (configuration not stated),inactive
19,COc1ccccc1OP(C)(=O)Nc1ccccc1 (configuration not stated),inactive
20,CP(=O)(Nc1ccccc1Br)Oc1ccccc1 (configuration not stated),inactive
21,CP(=S)(Nn1cnnc1)Oc1ccccc1 (configuration not stated),inactive
22,CP(=O)(Nc1ccc(SC(F)(F)F)cc1)Oc1ccccc1 (configuration not stated),inactive
23,CCCOc1ccc(NP(C)(=O)Oc2ccc(Cl)cc2)cc1 (configuration not stated),inactive
24,CN1CCCCC1COC(=O)C1(O)c2ccccc2CCc2ccccc21 (configuration not stated),inactive
25,COc1ccccc1OP(C)(=O)Nc1c(C)cccc1C (configuration not stated),inactive
26,O=[N+]([O-])c1cc([N+](=O)[O-])c(Nc2nnnn2CCO)c([N+](=O)[O-])c1,inactive

row,SMILES,Potency
1,Cc1nc2ccc3ccccc3c2s1.O=[N+]([O-])c1cc([N+](=O)[O-])c(O)c([N+](=O)[O-])c1,inactive
2,O=[N+]([O-])c1cc([N+](=O)[O-])c(-n2nnc3ccccc32)c([N+](=O)[O-])c1,inactive
3,CP(=O)(Nc1cccc(Br)c1)Oc1ccccc1 (configuration not stated),inactive
4,Cc1cc(C)cc(OP(C)(=O)Nc2ccccn2)c1 (configuration not stated),inactive
5,Cc1ccc(C)c(NP(C)(=O)Oc2ccccc2)c1 (configuration not stated),inactive
6,Cc1cc(C)cc(OP(C)(=O)Nc2ccc(C)cc2C)c1 (configuration not stated),inactive
7,CCOC(=O)c1ccc(NP(C)(=O)Oc2cc(C)cc(C)c2)cc1 (configuration not stated),inactive
8,COc1ccccc1OP(C)(=O)Nc1cccc(Br)c1 (configuration not stated),inactive
9,CC1=NCCc2c1[nH]c1ccccc21.O=[N+]([O-])c1cc([N+](=O)[O-])c(O)c([N+](=O)[O-])c1,inactive
10,CCCCCOc1ccc(NP(C)(=O)Oc2ccc(Cl)cc2Cl)cc1 (configuration not stated),inactive
11,CP(=O)(Nc1ccccc1)Oc1ccc(F)cc1 (configuration not stated),inactive
12,CCN(CC)CCCOC(=O)C(O)(c1ccccc1)C1CCCCC1 (configuration not stated),inactive
13,COc1ccc(OP(C)(=O)Nc2ccc(SC(F)(F)F)cc2)cc1 (configuration not stated),inactive
14,CCOC(=O)c1ccc(NP(C)(=O)Oc2ccc(F)cc2)cc1 (configuration not stated),inactive
15,O=C(OCCN1CCN(CCOCc2ccccc2)CC1)C(O)(c1ccccc1)c1ccccc1,inactive
16,CP(=O)(Nc1ccccc1F)Oc1ccccc1 (configuration not stated),inactive
17,Cc1ccccc1NP(C)(=O)Nc1ccccc1C,inactive
18,CP(=O)(Nc1ccc2c(c1)OCCO2)Oc1ccccc1 (configuration not stated),inactive
19,CCOP(C)(=S)SCC(=O)NC(C)(CC)C(=O)O (configuration not stated),inactive
20,CP(=O)(Nc1ccc(SC(F)(F)F)cc1)Oc1ccc(F)cc1 (configuration not stated),inactive
21,Cc1cc(-c2cccc3ccccc23)c(C)cn1.O=[N+]([O-])c1cc([N+](=O)[O-])c(O)c([N+](=O)[O-])c1,inactive
22,O=[N+]([O-])c1ccc(OP2(=O)COCCO2)cc1 (configuration not stated),inactive
23,COc1ccc(NP(C)(=O)Oc2ccccc2OC)cc1 (configuration not stated),inactive
24,COc1ccc(OP(C)(=O)Nc2cccc(Br)c2)cc1 (configuration not stated),inactive
25,CP(=O)(OC12CC3CC(CC(C3)C1)C2)OC12CC3CC(CC(C3)C1)C2,inactive
26,CCOC(=O)c1ccc(NP(C)(=O)Oc2ccc(Cl)cc2)cc1 (configuration not stated),inactive

row,SMILES,Potency
1,CN(C)C(=O)c1c([N+](=O)[O-])cc([N+](=O)[O-])cc1[N+](=O)[O-],inactive
2,CP(=O)(Nc1ccc(Cl)cc1)Oc1ccc(F)cc1 (configuration not stated),inactive
3,CC(C)(C)c1ccc(OP(C)(=O)O)cc1,inactive
4,COc1ccccc1OP(C)(=O)Nc1ccccc1Br (configuration not stated),inactive
5,CCc1ccc(OP(C)(=O)Nc2cccnc2)cc1 (configuration not stated),inactive
6,CP(=O)(Oc1ccccc1)N1CCOC1=O (configuration not stated),inactive
7,O=C(OCCCN1CCCC1)C(O)(c1ccccc1)C1CCCCC1 (configuration not stated),inactive
8,COc1ccccc1OP(C)(=O)Nc1c(C)n(C)n(-c2ccccc2)c1=O (configuration not stated),inactive
9,N#[O+].[C-]#N.[C-]#N.[C-]#N.[C-]#N.[C-]#N.[Fe+2].[Na+].[Na+],active: 11.2 µM
10,COc1ccc(OP(C)(=O)Nc2ccc(Br)cc2)cc1 (configuration not stated),inactive
11,CCN(CC)CC(O)COC(=O)C(O)(c1ccccc1)C1CCCCC1 (configuration not stated),inactive
12,CCc1ccc(OP(C)(=O)O)cc1,inactive
13,COc1ccccc1OP(C)(=O)Nc1ccc(C)cc1C (configuration not stated),inactive
14,CP(=O)(Nc1ccccn1)Oc1ccccc1 (configuration not stated),inactive
15,O=[N+]([O-])c1cc([N+](=O)[O-])c(Nc2ccccn2)c([N+](=O)[O-])c1,inactive
16,Cc1c(NP(C)(=O)Oc2ccc(C(C)C)cc2)c(=O)n(-c2ccccc2)n1C (configuration not stated),inactive
17,CN(C)CCOC(=O)C(O)(c1ccccc1)C1CCCC1 (configuration not stated),inactive
18,COc1ccc(OP(C)(=O)Nc2ccccn2)cc1 (configuration not stated),inactive
19,COc1ccccc1OP(C)(=O)Nc1ccc(Br)cc1 (configuration not stated),inactive
20,CP(=O)(OCCOc1ccccc1)OCCOc1ccccc1,inactive
21,CP(=O)(Nc1ccc(Cl)cc1Cl)Oc1ccccc1 (configuration not stated),inactive
22,Cc1nc2ccc3ccccc3c2o1.O=[N+]([O-])c1cc([N+](=O)[O-])c(O)c([N+](=O)[O-])c1,inactive
23,COc1ccc(OP(C)(=O)Nc2ccccc2Br)cc1 (configuration not stated),inactive
24,COc1ccccc1OP(C)(=O)Nc1ccc(C)c(C)c1 (configuration not stated),inactive
25,Cc1cc(C)cc(OP(C)(=O)Nc2cccc(C(F)(F)F)c2)c1 (configuration not stated),inactive
